Experimental findings from patent US20170281720A1 (published 2017) are described below.

Amino acid sequences for entries named in this document (tags omitted). Residues count along the entry.
UniProt Q00987, 1-125 limits assumed: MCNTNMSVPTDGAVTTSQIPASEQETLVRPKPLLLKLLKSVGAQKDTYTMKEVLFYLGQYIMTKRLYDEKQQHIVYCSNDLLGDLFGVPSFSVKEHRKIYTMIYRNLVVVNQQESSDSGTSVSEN

The target in one experiment is T1, MDM2 (In-house, 41 kD) (UniProt Q00987 1-125, limits assumed).
T1 construct: only 'In-house, 41 kD'; also called HDM2
The experiment is described as follows: fluorescence polarization, direct binding, MDM2 titrated against 10 nM labeled peptide.

Another experiment addresses T2, MDMX (In-house, 40 kD) (UniProt O15151 1-120, limits assumed).
T2 construct: only 'In-house, 40 kD'; also called MDM4
T2 sequence (looked up): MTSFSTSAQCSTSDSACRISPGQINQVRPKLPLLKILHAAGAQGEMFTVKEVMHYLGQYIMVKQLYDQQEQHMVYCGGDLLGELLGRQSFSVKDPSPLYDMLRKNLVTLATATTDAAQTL
The experiment is described as follows: fluorescence polarization, direct binding, MDMX titrated against 10 nM labeled peptide. Background: In fluorescence polarisation assays a small probe gives low polarisation when free and higher when bound to something large.

B1: 5-FAM-BaLTFEHYWAQLTS-NH2 (peptide)
peptide: ALTFEHYWAQLTS
modifications: N-terminal 5-FAM; Ba = beta-alanine after the label; C-terminal amide (NH2)
notes: Linear (not crosslinked) fluorescent tracer of the FP assays; also called FAM labeled linear peptide
As for B1, the Kd (as a rule, the concentration at which binding is half-saturated) in the experiment with MDM2 (In-house, 41 kD) was roughly 13.4 nM; with MDMX (In-house, 40 kD), roughly 51 nM.
